This is an account of results in the OPERA property sets (Mansouri et al. 2018).

Regarding `CC(C)O[N+](=O)[O-]`, the log10 OH rate constant (cm³/molecule/s) is -12.3.
